The target in the test is T1, Solute carrier family 22 member 11 (Homo sapiens, UniProt Q9NSA0).
T1 sequence (Q9NSA0 whole entry): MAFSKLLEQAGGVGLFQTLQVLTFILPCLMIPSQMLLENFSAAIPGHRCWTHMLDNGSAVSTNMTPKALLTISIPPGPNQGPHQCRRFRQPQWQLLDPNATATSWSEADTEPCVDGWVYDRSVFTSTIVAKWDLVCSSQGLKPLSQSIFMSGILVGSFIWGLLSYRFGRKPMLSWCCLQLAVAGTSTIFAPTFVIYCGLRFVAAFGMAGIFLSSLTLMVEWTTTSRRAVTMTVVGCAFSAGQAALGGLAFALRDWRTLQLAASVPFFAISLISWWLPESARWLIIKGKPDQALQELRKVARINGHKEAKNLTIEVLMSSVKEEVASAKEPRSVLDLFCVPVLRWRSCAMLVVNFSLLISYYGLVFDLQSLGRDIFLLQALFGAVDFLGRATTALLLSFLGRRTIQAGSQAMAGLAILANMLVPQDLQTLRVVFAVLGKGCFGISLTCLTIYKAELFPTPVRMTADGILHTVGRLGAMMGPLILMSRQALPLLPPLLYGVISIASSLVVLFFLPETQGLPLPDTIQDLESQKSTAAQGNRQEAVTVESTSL

Results on 1 molecule are retold here after ChEMBL document CHEMBL5385841, “Recent advances in gout drugs” (Eur J Med Chem, 2023).

In general, IC50 refers to the concentration at which inhibition is half-maximal. Low readings indicate greater potency, high ones weaker potency.

`O=C(O)CSc1nnc(Br)n1-c1ccc(C2CC2)c2ccccc12` [LESINURAD] registered an IC50 of 3.7 µM.
